Values of other authors in patent publication US11229595B2, “Skin barrier preparation and method therefor” (Johnson & Johnson Consumer Inc., priority 2019, dated 2022).

Details: caffeine, topical delivery; Dias M et al. Int J Pharm 1999

Cn1c(=O)c2c(ncn2C)n(C)c1=O [caffeine]
permeability coefficient kp: 0.0322 ×10⁻⁶ cm/s
